Consider two substances from patent US20170184612A1, “USE OF LEUKOCYTES AND NOVEL BIOMARKERS IN THE DIAGNOSIS, CONFIRMATION, AND TREATMENT OF A NEUROLOGICAL DISORDER” (The Trustees of Columbia University in the City of New York, priority 2014, published 2017).

Experiment [1] has as its target HLA class II allele DQB1*03:02 (human). Nature of the experiment: in vitro MHC class II-peptide binding assay.
Experiment [2] deals with HLA class II allele DPB1*03:01 (human). The experiment in a line: in vitro MHC class II-peptide binding assay.

What is called IC50 is the midpoint of a concentration-inhibition curve. The low end stands for higher potency, the high end for lower potency.

For “α-syn epitope 32…46 (SEQ ID NO: 34) (peptide)”, the IC50 turned out to be 9.25 µM in experiment [1] and 4.11 µM in experiment [2].
In turn, “α-syn epitope 31…45 (SEQ ID NO: 59) (peptide)” displayed an IC50 in experiment [1] of 21.7 µM.
